Source: patent US8604016B2, “Heterocyclic inhibitors of glutaminase” (Calithera Biosciences Inc., priority 2011, dated 2013)
Each block holds one compound with its values, some of them ahead of it.

Sequences of proteins named here, by UniProt entry; tags and fusion partners are left off. Residues count along the entry.
UniProt O94925, 55-669 limits assumed: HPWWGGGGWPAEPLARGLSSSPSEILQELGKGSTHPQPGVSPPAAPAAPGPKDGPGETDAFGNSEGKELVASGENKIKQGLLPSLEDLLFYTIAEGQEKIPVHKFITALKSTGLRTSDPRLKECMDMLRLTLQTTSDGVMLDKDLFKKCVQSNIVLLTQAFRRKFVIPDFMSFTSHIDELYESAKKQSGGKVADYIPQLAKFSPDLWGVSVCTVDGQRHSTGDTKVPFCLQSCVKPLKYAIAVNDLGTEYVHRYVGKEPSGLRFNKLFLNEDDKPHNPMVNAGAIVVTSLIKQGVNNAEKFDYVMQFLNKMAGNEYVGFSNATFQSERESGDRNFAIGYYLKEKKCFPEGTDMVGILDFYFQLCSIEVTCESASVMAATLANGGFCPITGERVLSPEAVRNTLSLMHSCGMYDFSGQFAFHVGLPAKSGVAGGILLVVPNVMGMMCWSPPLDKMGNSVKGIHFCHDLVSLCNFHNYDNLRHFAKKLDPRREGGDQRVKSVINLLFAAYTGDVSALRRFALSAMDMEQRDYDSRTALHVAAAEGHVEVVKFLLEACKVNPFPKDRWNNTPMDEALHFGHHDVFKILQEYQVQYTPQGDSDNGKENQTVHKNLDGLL

How the values were obtained:
[1] = target: T1, recombinant form of Glutaminase 1 (GAC) (Homo sapiens, UniProt O94925); test: Recombinant Enzyme Assay (GAC coupled to GDH, NADH absorbance, no preincubation); type: biochemical
Protocol: (§1) Enzymatic reaction was started with the addition of 50 μL of enzyme solution (50 mM Tris-HCl pH 8.0, 0.2 mM EDTA, 150 mM K2HPO4, 0.1 mg/ml BSA, 1 mM DTT, 10 ppm antifoam, 4 units/ml GDH, 4 mM adenosine diphosphate, and 4 nM GAC) and read in a Molecular Devices M5 plate reader at 20° C. The plate reader was configured to read absorbance (λ=340 nm) in kinetic mode for 15 minutes. Data was recorded as milli-absorbance units per minute and slopes were compared to a control compound and a DMSO-only control on the same plate. Compounds with slopes less than the DMSO control were considered inhibitors and plate variability was assessed using the control compound.

P493-6 (myc "on") cells = test: Cell Proliferation Assay (72 hrs, Cell Titer Glo or Viacount FACS); type: cell-based; conditions: P493-6, 72 h, read-out: Cell prolif P493 72h IC50
Protocol: P493-6 (myc “on”) cells were maintained in growth media (RPMI-1640, 10% FBS, 2 mM glutamine, 100 units/ml Penicillin and 100 μg/ml streptomycin) at 37° C. with 5% CO2. For compound assay, P493-6 cells were plated in 96-well V-bottom plates on the day of compound addition in 50 μl of growth media at a cell density of 200,000 cells/ml (10,000 cells/well). Compounds were serially diluted in 100% DMSO at 200-times the final concentration. Compounds were diluted 100-fold into growth media and then 50 μl of this mixture was added to cell plates making the final concentration of DMSO 0.5%. Cells were incubated with compound for 72 hrs at 37° C. with 5% CO2 and analyzed for antiproliferative effects either by Cell Titer Glo (Promega) or FACS analysis using the Viacount (Millipore) kit on the Guava instrument.

[2] = target: T1, recombinant form of Glutaminase 1 (GAC); test: Recombinant Enzyme Assay - Time Dependence (60 minutes enzyme/compound preincubation); type: biochemical; conditions: read-out: GAC Delta N2 IC50 60 min
Protocol: as §1, with “The enzyme/compound mix was sealed with sealing foil (USA Scientific) and allowed to incubate, with mild agitation, for 60 minutes at 20° C. Enzymatic” for “Enzymatic”, “substrate” for “enzyme”, “DTT, 20 mM L-glutamine, 2 mM NAD^+, and” for “DTT,”, “antifoam)” for “antifoam, 4 units/ml GDH, 4 mM adenosine diphosphate, and 4 nM GAC)”

[3] = Caco-2 Permeability Assay (bidirectional); type: in vitro ADME; conditions: human, (Papp B→A)/(Papp A→B)
Excerpt: Caco-2 cells are commonly used in a confluent monolayer on a cell culture insert filter. When cultured in this format and under specific conditions, the cells become differentiated and polarized such that their phenotype, morphologically and functionally resembles the enterocytes lining the small intestine. The cell monolayer provides a physical and biochemical barrier to the passage of small molecules, and is widely used across the pharmaceutical industry as an in vitro model of the human small intestinal mucosa to predict the absorption of orally administered drugs (Hidalgo et al., Gastroenterology, 1989; Artursson, J. Pharm. Sci., 1990). The correlation between the in vitro apparent permeability (P ? app) across Caco-2 monolayers and the in vivo absorption is well established (Artursson et al., Biochem. Biophys. Res. Comm., 1991).
The present assay was used to determine the bidirectional permeability of the compounds of the invention through Caco-2 cell monolayers. Caco-2 cells were grown in confluent monolayers where the media of both the apical (A) and basolateral (B) sides were at pH 7.4. Compounds were dosed at 1 μM in the presence of 200 μM Lucifer Yellow, on the apical side (A→B) or the basolateral side (B→A) for assessment, in duplicate.
The absorption potential of compounds were classified as either Low (P-app <1×10^−6 cm/s) or High (P-app >1×10^−6 cm/s).

[4] = read-out: GAC Delta N2 IC50 no preinc
[5] = no preincubation, read-out: GAC Delta N2 IC50 no preinc

SMILES: O=C(Cc1ccccc1Cl)Nc1nnc(CCCCc2nnc(NC(=O)Cc3ccccc3Cl)s2)s1 [Compound 256]
- IC50 [1, 4]: 0.11 µM

SMILES: Nc1nnc(CCSCCc2nnc(NC(=O)Cc3ccccc3)s2)s1 [Compound 17, N-(5-(2-((2-(5-amino-1,3,4-thiadiazol-2-yl)ethyl)thio)ethyl)-1,3,4-thiadiazol-2-yl)-2-phenylacetamide]
- IC50 (P493-6 (myc "on") cells): 4.2 µM

SMILES: COc1cccc(-c2cccc(CC(=O)Nc3nnc(CCCCc4nnc(NC(=O)Cc5cccc(-c6cccc(OC)c6)c5)s4)s3)c2)c1 [Compound 328]
- IC50 [1, 5]: > 20 µM

SMILES: CCCC(=O)OC(C(=O)Nc1nnc(CCCCc2ccc(NC(=O)Cc3ccccc3)nn2)s1)c1cccc(Cl)c1 (centres unmarked) [Compound 439]
- IC50 [2]: 0.25 µM

SMILES: O=C(Cc1ccccc1)Nc1nnc(CCCCc2nnc(NC(=O)Cc3ccccc3)o2)o1 [Compound 637]
- IC50 ([1]; read-out: GAC Delta N2 IC50 no): > 20 µM

SMILES: O=C(Cc1ccccc1CO)Nc1nnc(CCSCCc2nnc(NC(=O)Cc3ccccc3CO)s2)s1 [Compound 181, N,N′-(5,5′-(thiobis(ethane-2,1-diyl))bis(1,3,4-thiadiazole-5,2-diyl))bis(2-(2-(hydroxymethyl)phenyl)acetamide)]
- IC50 [1, 4]: 0.33 µM

- efflux ratio at 120 min, 1 µM [3]: 33
SMILES: O=C(Cc1ccccc1)Nc1ccc(CCCCc2nnc(NC(=O)Cc3ccccn3)s2)nn1 [Compound 354]

SMILES: O=C(C[C@@H](O)c1ccccc1)Nc1nnc(CCSCCc2nnc(NC(=O)C[C@@H](O)c3ccccc3)s2)s1 [Compound 126]
- IC50 [1, 4]: 5.8 µM

- IC50 [1, 5]: 2.3 µM
SMILES: Cc1cccc(CC(=O)Nc2nnc(CCCCc3nnc(NC(=O)Cc4cccc(C)c4)s3)s2)c1 [Compound 248]

SMILES: CC(=O)OCC(=O)Nc1nnc(CCSCCc2nnc(NC(=O)Cc3ccccc3)s2)s1 [Compound 26]
- IC50 [1, 4]: 5.6 µM

SMILES: O=C(Cc1ccccc1)Nc1nnc(CCCCc2nnc(NC(=O)Cc3ccccc3)o2)o1 [Compound 305]
- IC50 [1, 4]: > 20 µM
